# The list shows a part of the results, in another mix than the full data. Some results for these compounds are left out of this collection, so the calls shown say nothing about other tests. Activity calls are given as the source filed them.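 How the source made its calls: active means drop in membrane potential signal beyond 5 SD of the control wells in both duplicate plates; inactive means the rest.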
# Tested on: TRPC4 (transient receptor potential cation channel C4), mouse
# Test: TRPC4 inhibition by TRPC6 hit compounds, confirmation, selectivity assay for TRPC6 modulator project, cell-based, second screen, HEK293 TRPC4/mu-opioid, membrane potential dye (AID 488928);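 further: TRPC4 counter screen for TRPC6 hits run under conditions tuned for TRPC6 not TRPC4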
# Conditions: membrane potential dye fluorescence, at 10 µM, stimulated with maximal-effect DAMGO
row,Structure (SMILES),outcome
1,CCN(CC)CC(C)C(C)OC(=O)C(O)(c1ccccc1)c1ccccc1 (configuration not stated),inactive
2,CN1[C@@H]2CC[C@H]1CC(OC(=O)C(O)(c1ccccc1)c1ccccc1)C2 (some centres not stated),inactive

# — PubChem BioAssay AID488928 (Johns Hopkins Ion Channel Center, 2010)
